Experimental data published in patent US12435089B2, “3-oxadiazolyl substituted pyrazolo[1,5,a]pyrimidines for ROS1, NTRK, and ALK mediated diseases” (TYK MEDICINES, INC., priority 2019, dated 2025).

Amino acid sequences for entries named in this document (tags omitted). A change or cut given only in a name is not applied to a line headed by its entry. Residues count along the entry.
UniProt P08922, 28-2347 limits assumed: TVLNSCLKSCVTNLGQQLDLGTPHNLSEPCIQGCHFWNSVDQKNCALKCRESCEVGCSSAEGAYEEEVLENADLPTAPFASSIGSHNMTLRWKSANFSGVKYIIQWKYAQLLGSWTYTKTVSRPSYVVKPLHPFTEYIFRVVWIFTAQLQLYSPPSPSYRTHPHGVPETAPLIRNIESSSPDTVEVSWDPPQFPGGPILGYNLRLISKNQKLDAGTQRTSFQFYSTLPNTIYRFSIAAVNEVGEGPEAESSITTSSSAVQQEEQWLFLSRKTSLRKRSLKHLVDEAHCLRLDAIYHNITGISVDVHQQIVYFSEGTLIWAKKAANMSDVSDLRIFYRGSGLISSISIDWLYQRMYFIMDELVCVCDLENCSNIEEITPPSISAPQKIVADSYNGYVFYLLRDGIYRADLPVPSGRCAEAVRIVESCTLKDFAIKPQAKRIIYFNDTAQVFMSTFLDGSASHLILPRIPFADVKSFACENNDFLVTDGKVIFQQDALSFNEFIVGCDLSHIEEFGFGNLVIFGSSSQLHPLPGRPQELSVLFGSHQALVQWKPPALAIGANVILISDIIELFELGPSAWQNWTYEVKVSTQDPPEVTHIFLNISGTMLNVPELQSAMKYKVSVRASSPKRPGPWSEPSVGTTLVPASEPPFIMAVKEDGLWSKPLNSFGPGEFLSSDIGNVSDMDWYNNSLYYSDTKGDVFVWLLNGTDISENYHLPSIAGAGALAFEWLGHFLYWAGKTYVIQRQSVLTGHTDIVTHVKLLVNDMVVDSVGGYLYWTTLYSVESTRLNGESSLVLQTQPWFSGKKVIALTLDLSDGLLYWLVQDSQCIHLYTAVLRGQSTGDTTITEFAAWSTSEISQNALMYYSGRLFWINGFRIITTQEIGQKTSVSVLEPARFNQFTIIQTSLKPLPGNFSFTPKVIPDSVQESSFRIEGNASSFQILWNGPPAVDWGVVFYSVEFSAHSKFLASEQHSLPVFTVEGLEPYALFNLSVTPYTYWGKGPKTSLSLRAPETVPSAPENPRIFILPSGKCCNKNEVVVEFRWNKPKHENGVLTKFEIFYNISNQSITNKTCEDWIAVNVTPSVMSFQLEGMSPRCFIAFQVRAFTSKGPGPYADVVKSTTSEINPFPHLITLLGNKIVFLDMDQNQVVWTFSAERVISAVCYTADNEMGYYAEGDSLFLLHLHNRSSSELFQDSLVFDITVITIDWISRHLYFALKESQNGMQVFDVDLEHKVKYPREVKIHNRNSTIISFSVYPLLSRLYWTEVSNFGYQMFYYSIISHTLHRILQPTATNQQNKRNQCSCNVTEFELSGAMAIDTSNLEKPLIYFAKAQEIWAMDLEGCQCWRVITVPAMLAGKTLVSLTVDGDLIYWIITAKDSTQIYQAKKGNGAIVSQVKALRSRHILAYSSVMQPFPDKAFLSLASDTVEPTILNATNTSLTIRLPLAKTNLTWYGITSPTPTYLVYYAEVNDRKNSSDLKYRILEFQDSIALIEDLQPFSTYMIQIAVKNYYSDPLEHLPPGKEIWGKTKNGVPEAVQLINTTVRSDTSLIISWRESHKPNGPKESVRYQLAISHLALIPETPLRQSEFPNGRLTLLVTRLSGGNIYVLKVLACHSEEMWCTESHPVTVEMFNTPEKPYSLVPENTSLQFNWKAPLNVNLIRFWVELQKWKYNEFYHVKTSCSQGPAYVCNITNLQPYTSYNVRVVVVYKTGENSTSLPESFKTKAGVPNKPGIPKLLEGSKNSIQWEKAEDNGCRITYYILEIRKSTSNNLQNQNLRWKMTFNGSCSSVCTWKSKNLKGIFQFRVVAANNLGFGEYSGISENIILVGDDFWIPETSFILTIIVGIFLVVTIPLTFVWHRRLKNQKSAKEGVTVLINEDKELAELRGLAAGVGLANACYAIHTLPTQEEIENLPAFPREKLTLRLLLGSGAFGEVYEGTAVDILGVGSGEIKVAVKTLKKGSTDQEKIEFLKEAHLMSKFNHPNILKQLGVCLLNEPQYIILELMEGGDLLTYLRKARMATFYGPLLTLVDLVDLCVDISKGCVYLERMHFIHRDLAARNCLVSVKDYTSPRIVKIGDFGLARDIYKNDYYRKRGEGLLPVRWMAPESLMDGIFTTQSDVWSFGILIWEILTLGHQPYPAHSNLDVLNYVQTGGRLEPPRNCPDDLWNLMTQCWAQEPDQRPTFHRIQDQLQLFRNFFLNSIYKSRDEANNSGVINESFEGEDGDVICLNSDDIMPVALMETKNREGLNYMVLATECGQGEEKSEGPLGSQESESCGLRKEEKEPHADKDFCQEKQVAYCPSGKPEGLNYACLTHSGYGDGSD
UniProt P08922, 28-2347 G2032R limits assumed: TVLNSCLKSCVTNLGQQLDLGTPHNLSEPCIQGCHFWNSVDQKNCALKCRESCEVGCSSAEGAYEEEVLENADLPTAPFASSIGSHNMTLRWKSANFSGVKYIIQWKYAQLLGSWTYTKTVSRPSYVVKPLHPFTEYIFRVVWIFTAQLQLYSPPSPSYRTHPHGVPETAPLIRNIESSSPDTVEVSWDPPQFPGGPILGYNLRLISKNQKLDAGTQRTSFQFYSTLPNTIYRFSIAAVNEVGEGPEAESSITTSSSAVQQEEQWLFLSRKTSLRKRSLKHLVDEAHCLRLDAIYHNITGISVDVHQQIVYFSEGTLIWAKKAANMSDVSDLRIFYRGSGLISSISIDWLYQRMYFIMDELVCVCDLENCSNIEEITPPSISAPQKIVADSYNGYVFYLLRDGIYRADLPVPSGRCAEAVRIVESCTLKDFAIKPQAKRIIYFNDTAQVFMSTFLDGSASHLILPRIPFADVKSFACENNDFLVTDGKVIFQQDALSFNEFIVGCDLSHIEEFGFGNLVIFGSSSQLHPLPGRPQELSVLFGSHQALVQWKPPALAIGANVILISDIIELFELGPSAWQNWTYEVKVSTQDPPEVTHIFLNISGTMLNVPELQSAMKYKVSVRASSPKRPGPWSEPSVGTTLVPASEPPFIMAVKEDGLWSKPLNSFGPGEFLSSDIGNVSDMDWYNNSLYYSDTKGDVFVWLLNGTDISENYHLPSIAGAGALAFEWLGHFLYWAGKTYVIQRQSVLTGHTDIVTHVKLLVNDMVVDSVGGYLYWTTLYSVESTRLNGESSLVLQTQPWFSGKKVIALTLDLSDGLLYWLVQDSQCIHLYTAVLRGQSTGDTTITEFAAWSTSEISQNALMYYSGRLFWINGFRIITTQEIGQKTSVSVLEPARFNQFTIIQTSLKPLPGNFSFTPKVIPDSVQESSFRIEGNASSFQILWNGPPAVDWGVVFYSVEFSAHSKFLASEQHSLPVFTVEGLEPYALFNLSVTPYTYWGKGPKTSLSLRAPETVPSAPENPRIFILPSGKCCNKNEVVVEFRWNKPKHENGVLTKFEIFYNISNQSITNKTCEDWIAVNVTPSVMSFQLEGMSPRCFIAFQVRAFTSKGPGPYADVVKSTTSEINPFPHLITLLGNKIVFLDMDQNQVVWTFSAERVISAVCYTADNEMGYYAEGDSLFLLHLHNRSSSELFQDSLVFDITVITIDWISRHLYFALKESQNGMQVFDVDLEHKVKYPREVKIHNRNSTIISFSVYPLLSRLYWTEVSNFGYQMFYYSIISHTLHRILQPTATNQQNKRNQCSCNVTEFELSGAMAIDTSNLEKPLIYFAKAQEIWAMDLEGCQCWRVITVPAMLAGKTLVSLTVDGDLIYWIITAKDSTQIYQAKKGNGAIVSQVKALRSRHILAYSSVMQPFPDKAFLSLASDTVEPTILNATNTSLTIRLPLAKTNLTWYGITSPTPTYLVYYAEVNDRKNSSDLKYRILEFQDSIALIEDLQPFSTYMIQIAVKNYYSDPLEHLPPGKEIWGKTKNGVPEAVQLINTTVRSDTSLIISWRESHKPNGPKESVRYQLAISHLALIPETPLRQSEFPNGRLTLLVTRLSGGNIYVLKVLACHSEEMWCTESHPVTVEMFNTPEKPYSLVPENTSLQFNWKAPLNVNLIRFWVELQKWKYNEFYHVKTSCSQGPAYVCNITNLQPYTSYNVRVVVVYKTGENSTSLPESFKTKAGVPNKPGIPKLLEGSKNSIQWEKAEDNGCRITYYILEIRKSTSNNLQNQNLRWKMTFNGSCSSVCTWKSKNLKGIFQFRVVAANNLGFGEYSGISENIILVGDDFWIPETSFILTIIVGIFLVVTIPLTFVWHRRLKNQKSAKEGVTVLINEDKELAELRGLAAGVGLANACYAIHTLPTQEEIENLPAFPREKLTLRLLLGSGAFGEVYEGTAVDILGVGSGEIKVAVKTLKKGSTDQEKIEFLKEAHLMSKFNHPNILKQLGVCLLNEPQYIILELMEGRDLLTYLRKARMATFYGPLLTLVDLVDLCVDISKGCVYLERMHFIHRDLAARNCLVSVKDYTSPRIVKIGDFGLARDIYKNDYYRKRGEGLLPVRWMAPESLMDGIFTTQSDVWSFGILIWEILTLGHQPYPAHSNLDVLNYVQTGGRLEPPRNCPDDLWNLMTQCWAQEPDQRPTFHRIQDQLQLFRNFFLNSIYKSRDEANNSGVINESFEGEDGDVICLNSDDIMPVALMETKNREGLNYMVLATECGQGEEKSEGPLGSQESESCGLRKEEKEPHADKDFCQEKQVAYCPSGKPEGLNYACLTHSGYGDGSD
UniProt Q16288, 32-839 limits assumed: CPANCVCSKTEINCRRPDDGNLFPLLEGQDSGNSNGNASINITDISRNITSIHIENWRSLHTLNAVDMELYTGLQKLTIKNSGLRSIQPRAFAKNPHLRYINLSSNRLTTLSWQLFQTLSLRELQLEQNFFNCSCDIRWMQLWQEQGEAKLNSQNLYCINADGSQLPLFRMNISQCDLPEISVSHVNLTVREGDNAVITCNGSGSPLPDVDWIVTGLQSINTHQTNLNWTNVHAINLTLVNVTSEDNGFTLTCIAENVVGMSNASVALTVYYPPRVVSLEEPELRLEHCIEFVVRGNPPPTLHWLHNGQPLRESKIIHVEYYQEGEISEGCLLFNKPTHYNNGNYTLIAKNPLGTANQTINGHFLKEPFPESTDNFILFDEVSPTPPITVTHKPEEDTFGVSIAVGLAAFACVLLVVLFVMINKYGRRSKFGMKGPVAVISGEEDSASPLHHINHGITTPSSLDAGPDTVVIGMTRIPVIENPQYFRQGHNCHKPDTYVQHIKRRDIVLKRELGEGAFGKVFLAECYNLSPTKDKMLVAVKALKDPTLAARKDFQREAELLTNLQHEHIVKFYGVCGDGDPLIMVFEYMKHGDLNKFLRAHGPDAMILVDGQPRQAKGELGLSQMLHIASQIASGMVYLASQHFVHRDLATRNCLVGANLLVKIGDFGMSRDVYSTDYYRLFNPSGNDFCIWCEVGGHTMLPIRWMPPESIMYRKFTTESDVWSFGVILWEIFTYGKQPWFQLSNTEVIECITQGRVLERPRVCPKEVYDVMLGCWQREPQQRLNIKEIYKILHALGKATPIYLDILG

Assays:
ROS1 (G2032R) = ROS1 (G2032R) (Homo sapiens (Human), UniProt P08922, G2032R); assay: Radio-tagged HotSpot kinase assay, ROS1 (G2032R); conditions: read-out: ROS1 (G2032R) (IC50/nM); 33P-ATP, 120 min, room temperature
Ba/F3-LMNA-NTRK1 = assay: Inhibition of cell proliferation (CellTiter-Glo), Ba/F3-LMNA-NTRK1; conditions: read-out: Ba/F3-LMNA-NTRK1 (IC50/nM), 72 hours
Ba/F3-CD74-ROS1 = assay: Inhibition of cell proliferation (CellTiter-Glo), Ba/F3-CD74-ROS1; conditions: read-out: Ba/F3-CD74-ROS1 (IC50/nM), 72 hours
ROS1 = ROS1 (Homo sapiens (Human), UniProt P08922); assay: Radio-tagged HotSpot kinase assay, ROS1; conditions: read-out: ROS1 (IC50/nM); 33P-ATP, 120 min, room temperature
Ba/F3-CD74-ROS1-G2032R = assay: Inhibition of cell proliferation (CellTiter-Glo), Ba/F3-CD74-ROS1-G2032R; conditions: read-out: Ba/F3-CD74-ROS1-G2032R (IC50/nM), 72 hours
Ba/F3-LMNA-NTRK1-G595R = assay: Inhibition of cell proliferation (CellTiter-Glo), Ba/F3-LMNA-NTRK1-G595R; conditions: read-out: Ba/F3-LMNA-NTRK1-G595R (IC50/nM), 72 hours
TRKC = TRKC (Homo sapiens (Human), UniProt Q16288); assay: Radio-tagged HotSpot kinase assay, TRKC; conditions: read-out: TRKC (IC50/nM); 33P-ATP, 120 min, room temperature

SMILES: COc1ccc(F)cc1[C@@H](C)Nc1ccn2ncc(C3=NOC4(CCN(S(C)(=O)=O)CC4)N3)c2n1
- IC50 (ROS1 (G2032R)): < 0.5 nM
- IC50 (Ba/F3-LMNA-NTRK1): 26.2 nM
- IC50 (Ba/F3-CD74-ROS1): 4.5 nM
- IC50 (ROS1): < 0.5 nM
- IC50 (Ba/F3-CD74-ROS1-G2032R): 38.9 nM
- IC50 (Ba/F3-LMNA-NTRK1-G595R): 45.3 nM
- IC50 (TRKC): < 0.5 nM
